Chains of the proteins cited; added tags and fusions are not shown.
UniProt Q60492, whole entry: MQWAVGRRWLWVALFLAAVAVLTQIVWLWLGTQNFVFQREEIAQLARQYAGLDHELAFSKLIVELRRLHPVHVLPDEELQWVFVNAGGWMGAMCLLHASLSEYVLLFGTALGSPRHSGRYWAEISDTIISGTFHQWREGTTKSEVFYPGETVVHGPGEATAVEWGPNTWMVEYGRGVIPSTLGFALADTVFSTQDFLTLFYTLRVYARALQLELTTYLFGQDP

In BindingDB's records for doi:10.1021/jm8012344 (Washington University, 2009):

Target: Sigma non-opioid intracellular receptor 1 (Cavia porcellus, UniProt Q60492)
Assay: Displacement of [3H](+)-pentazocine from sigma1 receptor in guinea pig brain membrane by liquid scintillation counting

**Q.** With `O=C(c1ccc(F)cc1)C1CCN([C@@H]2Cc3ccccc3C[C@H]2O)CC1` [(+/-)-trans-2-Hydroxy-3-(4-(4-fluorobenzoyl)piperidino)tetralin] as the compound, how does the Ki read?
**A.** Its Ki is 186 nM.
